## Yeast mating assay 2: variants of the scFv Ab-91

Binding partner: SARS-CoV-2 spike HR2 peptide, sequence PDVDLGDISGINAS.

The variants keep the light chain, the linker and the frameworks of Ab-91 (scFv order VL, three GGGGS repeats, VH).
VL: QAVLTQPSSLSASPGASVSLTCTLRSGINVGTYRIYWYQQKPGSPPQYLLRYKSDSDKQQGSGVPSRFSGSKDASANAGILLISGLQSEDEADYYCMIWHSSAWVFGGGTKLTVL
VH: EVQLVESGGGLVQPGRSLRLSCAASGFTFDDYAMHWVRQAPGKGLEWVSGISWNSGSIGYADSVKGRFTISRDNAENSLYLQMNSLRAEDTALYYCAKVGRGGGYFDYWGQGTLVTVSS

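The starting antibody came from a phage panning campaign against this peptide. Library AAYL51 holds single substitutions and randomly drawn double and triple substitutions in the CDRs. Affinity was read by AlphaSeq, a pooled yeast mating assay with surface-displayed partners. After mating in shaken culture at 30 °C for 16 h, diploids were selected and their barcode pairs sequenced. Scores were corrected for input abundance and mapped to Kd with protein pairs of known affinity run in the same pool. The assay was run in three technical replicates.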

The whole VH of each variant is written out. Numbers give log10(Kd / nM), so 0 is 1 nM and 3 is 1 µM. Smaller is tighter. "n.d." means that the variant was in the library but no mating with the target was seen in that replicate; the authors take this as a sign of poor binding, and no number exists.

| VH | log10 Kd, replicates | signal with controls |
|---|---|---|
| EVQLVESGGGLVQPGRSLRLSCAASGFTTDDYAMHWVRQAPGKGLEWVSGISFNSGSIIYADSVKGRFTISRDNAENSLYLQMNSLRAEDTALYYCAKVGRGGGYFDYWGQGTLVTVSS | n.d. / n.d. / n.d. | 0 of 9 |
| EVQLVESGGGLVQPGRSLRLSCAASGFTFDDYAMHWVRQAPGKGLEWVSIIGWNSGSIGYADSVKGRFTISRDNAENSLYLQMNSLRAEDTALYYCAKVGREGGYFDYWGQGTLVTVSS | n.d. / n.d. / n.d. | 0 of 9 |
| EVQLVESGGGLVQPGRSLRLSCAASGFTFDDYAQHWVRQAPGKGLEWVSGISWNSGLIGYADSVKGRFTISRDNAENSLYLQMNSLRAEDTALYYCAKVGRGGGYFDYWGQGTLVTVSS | 3.46 / n.d. / n.d. | 4 of 9 (3.83) |
| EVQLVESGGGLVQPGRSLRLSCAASGFTFDDYAMHWVRQAPGKGLEWVSGIMWNSGSIGKADSVKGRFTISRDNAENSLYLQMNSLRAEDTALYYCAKVGRGGGYFVYWGQGTLVTVSS | 4.93 / 5.23 / n.d. | 3 of 9 (5.26) |
| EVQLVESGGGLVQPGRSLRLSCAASGFDFDDAAMHWVRQAPGKGLEWVSGISWNSGSIGYADSVFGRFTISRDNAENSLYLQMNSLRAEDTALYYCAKVGRGGGYFDYWGQGTLVTVSS | 2.53 / 3.37 / 2.29 | 2 of 9 (4.04) |
| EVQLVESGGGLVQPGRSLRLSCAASGFTFDDYAMMWVRQAPGKGLEWVSGISWNSGAIGYADSVKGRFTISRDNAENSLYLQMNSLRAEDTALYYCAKVGRGGGYFDLWGQGTLVTVSS | 5.57 / 5.04 / 4.72 | 0 of 9 |
| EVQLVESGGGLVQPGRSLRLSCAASGFTFDDPAMHWVRQAPGKGLEWVSGITWNYGSIGYADSVKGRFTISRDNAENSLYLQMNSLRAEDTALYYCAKVGRGGGYFDYWGQGTLVTVSS | n.d. / n.d. / 4.11 | 4 of 9 (3.88) |
| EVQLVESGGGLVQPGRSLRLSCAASGPTFDDYAMHWVRQAPGKGLEWVSGISWNSGSIIYADSGKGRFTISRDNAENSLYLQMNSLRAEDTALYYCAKVGRGGGYFDYWGQGTLVTVSS | n.d. / n.d. / n.d. | 1 of 9 (4.46) |
| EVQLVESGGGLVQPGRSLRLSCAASGFTFDDYKMHWVRQAPGKGLEWVSGISWKSGSIVYADSVKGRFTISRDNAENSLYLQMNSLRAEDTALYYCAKVGRGGGYFDYWGQGTLVTVSS | n.d. / n.d. / n.d. | 2 of 9 (4.06) |
| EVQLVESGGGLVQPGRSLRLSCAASGFTFDDYAMHWVRQAPGKGLEWVSGIWWNSGSIGYASSVDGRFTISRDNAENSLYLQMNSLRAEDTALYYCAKVGRGGGYFDYWGQGTLVTVSS | 4.31 / 5.07 / n.d. | 5 of 9 (4.57) |
| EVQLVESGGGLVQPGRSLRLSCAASGFTFDDYFCHWVRQAPGKGLEWVSGISWNSGSIGYADYVKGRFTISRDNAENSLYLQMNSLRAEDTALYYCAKVGRGGGYFDYWGQGTLVTVSS | 3.77 / 4.81 / 3.90 | 3 of 9 (4.07) |
| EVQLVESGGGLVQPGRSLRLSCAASVFTFDDYCMHWVRQAPGKGLEWVSGISWNRGSIGYADSVKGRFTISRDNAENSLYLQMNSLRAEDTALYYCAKVGRGGGYFDYWGQGTLVTVSS | 2.50 / 3.31 / 3.40 | 0 of 9 |
| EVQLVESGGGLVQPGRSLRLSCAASGFTFDDYAMHWVRQAPGKGLEWVSGITWNSGSIGYADSVKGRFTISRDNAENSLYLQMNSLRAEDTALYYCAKVGRGGQYFDPWGQGTLVTVSS | n.d. / 2.75 / n.d. | 1 of 9 (3.51) |
| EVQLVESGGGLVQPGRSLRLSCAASGFTNDDYAMHWVRQAPGKGLEWVSGDSWNSGSIGYADSVKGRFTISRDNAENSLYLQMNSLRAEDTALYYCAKVGRGGGYFDYWGQGTLVTVSS | n.d. / n.d. / 3.41 | 0 of 9 |
| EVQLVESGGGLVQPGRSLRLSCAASGFTFDYYAMHWVRQAPGKGLEWVSGINWNSGSIGYADSVKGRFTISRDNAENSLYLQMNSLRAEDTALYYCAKVGRGGQYFDYWGQGTLVTVSS | 1.17 / 1.51 / 0.74 | 0 of 9 |
| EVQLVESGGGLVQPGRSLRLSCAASGWTFDDYAMHWVRQAPGKGLEWVSGISWNSGSIGYAYSVKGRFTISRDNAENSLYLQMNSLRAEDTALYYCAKVLRGGGYFDYWGQGTLVTVSS | n.d. / n.d. / n.d. | 0 of 9 |
| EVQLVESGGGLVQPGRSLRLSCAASGNIFDDYAMHWVRQAPGKGLEWVSGCSWNSGSIGYADSVKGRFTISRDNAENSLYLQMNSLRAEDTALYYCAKVGRGGGYFDYWGQGTLVTVSS | n.d. / n.d. / n.d. | 0 of 9 |
| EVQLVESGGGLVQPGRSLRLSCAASGFTFDAHAMHWVRQAPGKGLEWVSGISWNSGSIGYADSVKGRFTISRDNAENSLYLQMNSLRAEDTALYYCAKVGRGGGYFDPWGQGTLVTVSS | 3.14 / 3.73 / 4.04 | 1 of 9 (4.32) |

From the list, the first 2 with no signal in any replicate:

| VH | log10 Kd, replicates | signal with controls |
|---|---|---|
| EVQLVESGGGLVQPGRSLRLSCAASGFTTDDYAMHWVRQAPGKGLEWVSGISFNSGSIIYADSVKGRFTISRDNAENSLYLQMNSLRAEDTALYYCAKVGRGGGYFDYWGQGTLVTVSS | n.d. / n.d. / n.d. | 0 of 9 |
| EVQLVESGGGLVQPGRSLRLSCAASGFTFDDYAMHWVRQAPGKGLEWVSIIGWNSGSIGYADSVKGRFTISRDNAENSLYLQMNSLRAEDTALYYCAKVGREGGYFDYWGQGTLVTVSS | n.d. / n.d. / n.d. | 0 of 9 |

As a blank, each scFv also met three strains without target: over library AAYL51, 21% of these pairings were detected, typically at 4.54 and seldom below 3.26. The control count says in how many pairings with the empty strains this scFv gave a signal, with their mean in brackets. For reference, the parent read 1.86 as the reference entry and 0.88 as a member of this library.

Source: Engelhart et al. 2022 (doi:10.1038/s41597-022-01779-4), MIT Lincoln Laboratory and A-Alpha Bio; data file from the FLAb repository.